# OPERA 2.9 data: properties

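The numbers are reported measurements, compiled and curated for the OPERA QSAR suite. One number stands for a compound and property, with no spread given. Method, purity and exact conditions of the single measurements are not given. The measured form (salt, isomer or mixture) is not always the one drawn. Unmarked limits or estimates from the upstream databases cannot be ruled out.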

Melting points are in °C.
The octanol-water partition coefficient is given as log10; larger values mean a more lipophilic compound.
Water solubility is log10 of mol/L, nominally at 25 °C; higher is more soluble.
Vapor pressures (log10 mmHg) refer to near room temperature, 15 to 30 °C; higher is more volatile.
The Henry's law constant is on a log10 scale in atm·m3/mol (set defined at 25 °C); higher favours air over water.
The unbound fraction in human plasma runs from 0 (all bound) to 1 (all free).
Clint is human hepatic intrinsic clearance in µL/min per million cells; 0 means that no clearance was seen.

For O=C(O)C(F)(F)C(F)(F)C(F)(F)C(F)(F)C(F)(F)C(F)(F)C(F)(F)C(F)(F)C(F)(F)C(F)(F)F [Perfluoroundecanoic acid] the data give water solubility -3.787 (log10 mol/L) and Clint 0 µL/min/10^6 cells. Listed for CN1CSC(=S)N(C)C1 [Dazomet]: fraction unbound 0.8909 and Clint 12.42 µL/min/10^6 cells. O=C(NC(=O)c1c(F)cccc1F)Nc1cc(Cl)c(OC(F)(F)C(F)C(F)(F)F)c(Cl)c1F (stereo not given) [Noviflumuron] is reported with logP (octanol/water) 4.94 and water solubility -6.436 (log10 mol/L) and log vapor pressure -11.53 (log10 mmHg). CC(C)(c1ccccc1)c1ccc(O)cc1 [4-Cumylphenol] is reported with logP (octanol/water) 3.7 and water solubility -3.47 (log10 mol/L). NNC(=O)NN [Carbonic dihydrazide] is reported with logP (octanol/water) -2.94 and log vapor pressure -6.268 (log10 mmHg). The entry for O=S(=O)([O-])C(F)(F)C(F)(F)C(F)(F)C(F)(F)F.[K+] [Potassium perfluorobutanesulfonate] lists water solubility -1.509 (log10 mol/L) and fraction unbound 0.01933. For CCOC(=O)COc1ccc(Cl)cc1Cl the data give water solubility -3.35 (log10 mol/L) and log vapor pressure -2.959 (log10 mmHg). CC(C)(c1ccc(OC#N)cc1)c1ccc(OC#N)cc1 [1,3-Bis(4-cyanophenyl)propane] has logP (octanol/water) 3.57 and log vapor pressure -7.322 (log10 mmHg).

C[C@@H](CO)NC(=O)[C@@H]1C=C2c3cccc4[nH]cc(c34)C[C@H]2N(C)C1 [Ergometrine] is reported with logP (octanol/water) 0.9 and water solubility -3.006 (log10 mol/L). For CCCC(C)C1(CC)C(=O)N=C(O)NC1=O (stereo not given) [Pentobarbital] the data give fraction unbound 0.3873 and Clint 0.723 µL/min/10^6 cells. C#C[C@@]1(OC(C)=O)CC[C@@H]2[C@H]3CC=C4C=C(OCC)CC[C@H]4[C@@H]3CC[C@]21C has mp 181.2 °C and water solubility -8.826 (log10 mol/L) and log vapor pressure -7.771 (log10 mmHg). C=C(Cl)Cl [1,1-dichloroethylene] is reported with fraction unbound 0.4279 and Clint 24.46 µL/min/10^6 cells. For CN1COCN(Cc2cnc(Cl)s2)C1=N[N+](=O)[O-] [Thiamethoxam] the data give water solubility -1.851 (log10 mol/L) and Clint 0.61 µL/min/10^6 cells. O=P(Oc1ccccc1)(Oc1ccccc1)Oc1ccc(-c2ccc(OP(=O)(Oc3ccccc3)Oc3ccccc3)cc2)cc1 has mp -29.77 °C and logP (octanol/water) 5.5. CC(CC(=O)OOC(C)(C)C)CC(C)(C)C (stereo not given) has logP (octanol/water) 4.78 and water solubility -4.21 (log10 mol/L) and log vapor pressure -1.648 (log10 mmHg). CC1=NNC(=O)N(/N=C/c2cccnc2)C1 [Pymetrozine] is reported with log vapor pressure -7.523 (log10 mmHg) and Clint 8.61 µL/min/10^6 cells.

For Clc1ccc(-c2ccccc2)cc1Cl [3,4-Dichlorobiphenyl] the data give mp 50 °C and log vapor pressure -2.255 (log10 mmHg). Oc1ccc(Cl)cc1Cc1ccccc1 [Clorophene] has fraction unbound 0.001252 and Clint 4.53 µL/min/10^6 cells. O=S(=O)(O)C(F)(F)C(F)(F)C(F)(F)C(F)(F)F [Perfluorobutanesulfonic acid] is reported with water solubility -2.77 (log10 mol/L) and Clint 1.152 µL/min/10^6 cells. For COC(=O)N(OC)c1ccccc1COc1ccn(-c2ccc(Cl)cc2)n1 the data give water solubility -5.31 (log10 mol/L) and log vapor pressure -9.71 (log10 mmHg) and Henry's law constant -10.28 (log10 atm·m3/mol). OCCSSCCO [2-Hydroxyethyl disulfide] has logP (octanol/water) -0.3 and log vapor pressure -4.844 (log10 mmHg). Brc1cc(Br)c(OCCOc2c(Br)cc(Br)cc2Br)c(Br)c1 [1,2-Bis(2,4,6-tribromophenoxy)ethane] is reported with mp 222 °C and logP (octanol/water) 8.9. CN(C)C(=S)[S-].CN(C)C(=S)[S-].CN(C)C(=S)[S-].[Fe+3] [Ferbam] is reported with logP (octanol/water) -1.6 and log vapor pressure -6.552 (log10 mmHg). For Cl.NNC(N)=O [Semicarbazide hydrochloride] the data give logP (octanol/water) -2.75 and log vapor pressure -5.648 (log10 mmHg).

The first 4 entries again:

For O=C(O)C(F)(F)C(F)(F)C(F)(F)C(F)(F)C(F)(F)C(F)(F)C(F)(F)C(F)(F)C(F)(F)C(F)(F)F [Perfluoroundecanoic acid] the data give water solubility -3.787 (log10 mol/L) and Clint 0 µL/min/10^6 cells.
For CN1CSC(=S)N(C)C1 [Dazomet] the data give fraction unbound 0.8909 and Clint 12.42 µL/min/10^6 cells.
For O=C(NC(=O)c1c(F)cccc1F)Nc1cc(Cl)c(OC(F)(F)C(F)C(F)(F)F)c(Cl)c1F (stereo not given) [Noviflumuron] the data give logP (octanol/water) 4.94 and water solubility -6.436 (log10 mol/L) and log vapor pressure -11.53 (log10 mmHg).
For CC(C)(c1ccccc1)c1ccc(O)cc1 [4-Cumylphenol] the data give logP (octanol/water) 3.7 and water solubility -3.47 (log10 mol/L).

Source: data files of OPERA 2.9 (Mansouri et al.), github.com/kmansouri/OPERA.